According to patent publication US9738720B2, “Monoclonal antibodies against HER2 epitope and methods of use thereof” (Mersana Therapeutics, Inc., priority 2014, dated 2017):
“And” between values parts separate entries of the source, which are not always exact repeats. Equal values may be shown once.

Tests used:
MDA-MB-175VII cells = assay: Cytotoxicity assay (CellTiter-Glo), MDA-MB-175VII; format: cell-based, human; settings: 72 hours or 6 days
Description: (§1) HER2-(EG2-MI-(10 kDa PHF-BA-(AF-HPA-Ala))) conjugates were evaluated for their antiproliferation properties in tumor cell lines in vitro using Cell Titer-Glo (Promega Corp). JIMT-1(HER2 medium expressing cells, DSMZ, Braunschweig, Germany, Cat.# ACC589), MDA-MB-361 (HER2 medium expressing human breast cancer cells, ATCC, Cat.# HTB-27), MDA-MB-453 cells (triple negative breast cancer cell line, ATCC, Cat.# HTB-131), were cultured in DMEM media (ATCC, Manassas, Va., Cat.#30-2002) with 10% FBS (Gibco®, Life Technologies, Grand Island, N.Y., Cat.#16140-071). NCI-H522 (non-small cell lung carcinoma cell line, not amplified, ATCC, Cat.# CRL-5810), and NCI-H2170 (non-small cell lung carcinoma cell line, ATCC, Cat.# CRL-5928) cells were cultured in RPMI-1640 medium (ATCC, Cat.#30-2001). NCI-H1581 (non-small cell lung carcinoma medium expressing cell line, not amplified, ATCC, Cat.# CRL-5878) cells were cultured in DMEM:F12 medium (ATCC, Cat.#30-2006). SNU5 (gastric carcinoma cell line, not amplified, ATCC, Cat.# CRL-5973) was cultured in Iscove's Modified Dulbecco's Medium (Invitrogen Life Technologies, Cat.#12440053) with 20% FBS. OVCAR3 (ovarian adenocarcinoma cell line, not amplified, ATCC, Cat.# HTB-161) was cultured in RPMI medium with 20% FBS. […] CAMA-1 (human breast cancer cell line, not amplified, ATCC, Cat.# HTB-21), was cultured in 90% ATCC-formulated Eagle's Minimum Essential Medium. ZR75-1 (human breast cancer cell line, not amplified, ATCC, Cat.# CRL-1500), was cultured in RPMI-1640 Medium. […]
(§2) For the cytotoxicity assay, cells were seeded at a density of 3000 cells per well in 96 well plates and allowed to attach during overnight incubation at 37° C. in the presence of 5% CO2. […] Cell survival was measured using CellTiter-Glo® Luminescent Cell Viability Assay (Promega, Madison, Wis.) as described in the kit instructions. Cell viability was normalized to untreated control and expressed as a percentage. The values were plotted and IC50 values calculated with Graphpad Prism software (San Diego, Calif.) using 4 parameter, variable slope, dose response curve fitting algorithm.

CAMA-1 cells = assay: Cytotoxicity assay (CellTiter-Glo), CAMA-1; format: cell-based, human; settings: 72 hours or 6 days
Description: as §1, §2

NCI-H2122 cells = assay: Cytotoxicity assay (CellTiter-Glo), NCI-H2122; format: cell-based, human; settings: 72 hours or 6 days
Description: (§3) HER2-(EG2-MI-(10 kDa PHF-BA-(AF-HPA-Ala))) conjugates were evaluated for their antiproliferation properties in tumor cell lines in vitro using Cell Titer-Glo (Promega Corp). JIMT-1(HER2 medium expressing cells, DSMZ, Braunschweig, Germany, Cat.# ACC589), MDA-MB-361 (HER2 medium expressing human breast cancer cells, ATCC, Cat.# HTB-27), MDA-MB-453 cells (triple negative breast cancer cell line, ATCC, Cat.# HTB-131), were cultured in DMEM media (ATCC, Manassas, Va., Cat.#30-2002) with 10% FBS (Gibco®, Life Technologies, Grand Island, N.Y., Cat.#16140-071). NCI-H522 (non-small cell lung carcinoma cell line, not amplified, ATCC, Cat.# CRL-5810), and NCI-H2170 (non-small cell lung carcinoma cell line, ATCC, Cat.# CRL-5928) cells were cultured in RPMI-1640 medium (ATCC, Cat.#30-2001). […]
as §2

HCC1187 cells = assay: Cytotoxicity assay (CellTiter-Glo), HCC1187; format: cell-based, human; settings: 72 hours or 6 days
Description: as §1, §2

[1] = system: low HER2-expressing breast and gastric cancer models; assay: Low HER2-expressing breast and gastric cancer models; format: in vivo; settings: conjugate single doses of 1 mg/kg or […]; Kadcyla at doses of 10 mg/kg and above
HCC70 cells = assay: Cytotoxicity assay (CellTiter-Glo), HCC70; format: cell-based, human; settings: 72 hours or 6 days
Description: as §3, §2

H522 cells = assay: H522 mouse tumor xenograft model; format: in vivo; settings: FIG. 15; Example 16E 5 mg/kg; Example 17B 5 mg/kg; Kadcyla 10 mg/kg; IV single dose
MDA-MB-231 cells = assay: Cytotoxicity assay (CellTiter-Glo), MDA-MB-231; format: cell-based, human; settings: 72 hours or 6 days
Description: as §3, §2

SKOV3 cells [2] = assay: SKOV3 mouse tumor xenograft model; format: in vivo; settings: FIG. 16; Kadcyla 10 mg/kg; Example 17B 5 mg/kg; IV single dose
OVCAR3 cells = assay: Cytotoxicity assay (CellTiter-Glo), OVCAR3; format: cell-based; settings: 72 hours or 6 days
Description: as §3, §2

TOV-21G cells = assay: TOV-21G mouse tumor xenograft model; format: in vivo; settings: FIG. 14; Example 16E 5 mg/kg or 2 mg/kg; Kadcyla 10 mg/kg; IV single dose
Description: Tumor growth inhibition (% TGI) was defined as the percent difference in median tumor volumes (MTVs) between treated and control groups.
Treatment efficacy was determined from the incidence and magnitude of regression responses of the tumor size observed during the study. […] In a PR response, the tumor volume was 50% or less of its Day 1 volume for three consecutive measurements during the course of the study, and equal to or greater than 13.5 mm^3 for one or more of these three measurements. In a CR response, the tumor volume was less than 13.5 mm3 for three consecutive measurements during the course of the study. An animal with a CR response at the termination of a study was additionally classified as a tumor-free survivor (TFS). Animals were monitored for regression responses.
Female NCr nu/nu were inoculated subcutaneously with TOV-21G cells (n=10 for each group). Test compounds or vehicle were dosed IV as a single dose on day 1 or as indicated. Tumor size was measured at the times indicated in FIGS. 8 to 18 using digital calipers. Tumor volume was calculated and was used to determine the delay in tumor growth. Mice were sacrificed when tumors reached a size of 800 to 1500 mm^3. Tumor volumes are reported as the mean±SEM for each group.

NCI-H460 cells = assay: Cytotoxicity assay (CellTiter-Glo), NCI-H460; format: cell-based, human; settings: 72 hours or 6 days
Description: as §3, §2

SKOV3 cells [3] = assay: Cytotoxicity assay (CellTiter-Glo), SKOV3; format: cell-based, human; settings: 72 hours or 6 days
Description: as §3, §2

MDA-MB-361 cells = assay: Cytotoxicity assay (CellTiter-Glo), MDA-MB-361; format: cell-based, human; settings: 72 hours or 6 days
Description: as §3, §2

SKBR3 cells = assay: Internalization rate with anti-HER2 antibody combination; format: cell-based
Description: For the assay, 40,000 SKBR3 cells were plated in DMEM media containing 10% FBS, in each well of three 96 well plates (black colored plates with clear bottomed wells) and allowed to attach overnight at 37° in 5% CO2. The next day the cells were treated with antibodies as follows. […] The unbound antibody was removed by washing the cells two times with ice cold media. For detection, 5 μg/ml of an Alexa 647 labelled anti-human IgG Fab fragment was added to each well in ice cold media and incubated on ice for 1 hr. The unbound secondary antibody was removed by washing each well 2 times with ice cold media. […] Each treatment was carried out in triplicate. One set of wells were treated with the Alexa 647 labelled anti-human IgG monovalent Fab fragment alone, and the fluorescence measured in these wells was used to subtract background fluorescence.
One plate was left on ice to determine the time 0 values for each treatment, and the other plates were incubated at 37° C. After 1.5 hours, one plate from 37° C., and the time 0 plate, were washed 2 times with ice cold PBS and scanned using the 680 nm channel of a Licor Odyssey scanner. The fluorescence measured in each well is used as the total fluorescence for each treatment. The cells were then acid washed 2 times with 100 mM glycine, 50 mM KCl, and 20 mM […], pH2.2, then washed two times with ice cold PBS to remove the surface bound antibodies. The plates were scanned again to determine the amount of internalized fluorescence in each well. The 24 hour plates were analyzed the same way the next day.

MDA-MB-453 cells = assay: Cytotoxicity assay (CellTiter-Glo), MDA-MB-453; format: cell-based; settings: 72 hours or 6 days
JIMT-1 cells = assay: Cytotoxicity assay (CellTiter-Glo), JIMT-1; format: cell-based; settings: 72 hours or 6 days
NCI-N87 cells = assay: Cytotoxicity assay (CellTiter-Glo), NCI-N87; format: cell-based; settings: 72 hours or 6 days
BT474 cells = assay: Cytotoxicity assay (CellTiter-Glo), BT474; format: cell-based, human; settings: 72 hours or 6 days
NCI-H522 cells = assay: Cytotoxicity assay (CellTiter-Glo), NCI-H522; format: cell-based; settings: 72 hours or 6 days
NCI-H1581 cells = assay: Cytotoxicity assay (CellTiter-Glo), NCI-H1581; format: cell-based; settings: 72 hours or 6 days
NCI-H2170 cells = assay: Cytotoxicity assay (CellTiter-Glo), NCI-H2170; format: cell-based; settings: 72 hours or 6 days
CALU3 cells = assay: Cytotoxicity assay (CellTiter-Glo), CALU3; format: cell-based, human; settings: 72 hours or 6 days
A549 cells = assay: Cytotoxicity assay (CellTiter-Glo), A549; format: cell-based, human; settings: 72 hours or 6 days
NCI-H1781 cells = assay: Cytotoxicity assay in a cell line with a mutant HER2 (CellTiter-Glo), NCI-H1781; format: cell-based, human; settings: 72 hours
SNU5 cells = assay: Cytotoxicity assay (CellTiter-Glo), SNU5; format: cell-based; settings: 72 hours or 6 days
MKN45 cells = assay: Cytotoxicity assay (CellTiter-Glo), MKN45; format: cell-based, human; settings: 72 hours or 6 days
ZR75-1 cells = assay: Cytotoxicity assay (CellTiter-Glo), ZR75-1; format: cell-based, human; settings: 72 hours or 6 days
KATOIII cells = assay: Cytotoxicity assay (CellTiter-Glo), KATOIII; format: cell-based, human; settings: 72 hours or 6 days
T47D cells = assay: Cytotoxicity assay (CellTiter-Glo), T47D; format: cell-based, human; settings: 72 hours or 6 days
TOV21G cells = assay: Cytotoxicity assay (CellTiter-Glo), TOV21G; format: cell-based, human; settings: 72 hours or 6 days
SHP-77 cells = assay: Cytotoxicity assay (CellTiter-Glo), SHP-77; format: cell-based, human; settings: 72 hours or 6 days
HCC38 cells = assay: Cytotoxicity assay (CellTiter-Glo), HCC38; format: cell-based, human; settings: 72 hours or 6 days
[4] = target: T1, recombinant human HER2 extracellular domain (Homo sapiens, UniProt P04626); assay: Antibody affinity by ELISA, human HER2; format: binding; settings: Table IIA
T1 construct: either human derived (amino acids 23-652, Acro Biosystems Cat.# HE2-H5225); purchased Acro Biosystems HE2-H5225

[5] = target: recombinant cynomolgus monkey HER2 extracellular domain; assay: Antibody affinity by ELISA, cynomolgus monkey HER2; format: binding; settings: Table IIA

Row | Substance | IC50 (MDA-MB-175VII cells) [nM] | IC50 (CAMA-1 cells) [nM] | IC50 (NCI-H2122 cells) [nM] | IC50 (HCC1187 cells) [nM] | IC50 (HCC70 cells) [nM] | IC50 (MDA-MB-231 cells) [nM] | IC50 (OVCAR3 cells) [nM] | IC50 (NCI-H460 cells) [nM] | IC50 (SKOV3 cells [3]) [nM] | IC50 (MDA-MB-361 cells) | IC50 (MDA-MB-453 cells) [nM] | IC50 (NCI-N87 cells) [nM] | IC50 (BT474 cells) [nM] | other results
1 | Example 16B: Trastuzumab-(EG2-MI-(10 kDa PHF-BA-(AF-HPA-Ala))) conjugate, DAR about 16:1 to about 21:1 | 0.1 | 0.02 | 0.5 | 0.8 | – | – | – | – | – | – | – | – | – | –
2 | Kadcyla: antibody-drug conjugate of trastuzumab linked to the cytotoxic agent mertansine (DM1) [reference compound] | 1.2 | 7.8 | – | 30 | 83.4 | 27 | ~85 | 68 | 5.6 | 0.27 nM and 0.33 nM | – | – | – | tumor response [1]: inactive; tumor response (H522 cells): did not attain the threshold for therapeutic activity; tumor response (SKOV3 cells [2]): did not attain the threshold for therapeutic activity; tumor response (TOV-21G cells): did not attain the threshold for therapeutic activity
3 | Trastuzumab: recombinant, humanized monoclonal antibody directed against domain IV of the HER2 protein [reference compound] | – | – | – | – | – | – | – | – | – | – | – | – | – | Percent internalized (SKBR3 cells; antibody alone): 13%; Percent internalized (SKBR3 cells; trastuzumab + pertuzumab): about 30%; Percent internalized (SKBR3 cells; trastuzumab + pertuzumab, listed as Trast.): 28%
4 | XMT 1519-(EG2-MI-(10 kDa PHF-BA-(AF-HPA-Ala))) [Example 16D] | – | – | – | – | – | – | – | – | 0.6 | 0.02 nM | 0.04 | 0.03 | 0.03 | IC50 (JIMT-1 cells): 0.6 nM; IC50 (NCI-H522 cells): 0.8 nM; IC50 (NCI-H1581 cells): 5.6 nM
5 | XMT 1519-(EG2-MI-(10 kDa PHF-BA-(AF-HPA-Ala))) [Example 16E] | 0.3 | 0.1 | 2.5 | 1.7 | 4 | 6.3 | 2.4 | 20 | – | – | 0.04 | 0.08 | 0.06 | IC50 (NCI-H2170 cells): 0.08 nM; IC50 (CALU3 cells): 0.15 nM; IC50 (A549 cells): 10.8 nM; IC50 (NCI-H1781 cells): 0.71 nM; IC50 (SNU5 cells): 3.3 nM; IC50 (MKN45 cells): 5.2 nM; IC50 (ZR75-1 cells): 2.7 nM; IC50 (KATOIII cells): 3.8 nM; IC50 (T47D cells): 1.2 nM; IC50 (TOV21G cells): 8.8 nM; IC50 (SHP-77 cells): 22 nM; IC50 (HCC38 cells): 4 nM
6 | XMT 1519-(EG2-MI-(10 kDa PHF-BA-(AF-HPA-Ala))) [Example 16H] | – | – | – | – | – | – | – | – | – | – | – | – | – | Kd [4]: 0.05 nM; Kd [5]: 0.05 nM
